The source of these data is patent US20230266321A1, “LIVE CELL ENGAGEMENT ASSAY” (Icahn School of Medicine at Mount Sinai, priority 2020, published 2023).

The chains behind the UniProt entries cited, without tags or fusion partners.
UniProt Q02750, whole entry: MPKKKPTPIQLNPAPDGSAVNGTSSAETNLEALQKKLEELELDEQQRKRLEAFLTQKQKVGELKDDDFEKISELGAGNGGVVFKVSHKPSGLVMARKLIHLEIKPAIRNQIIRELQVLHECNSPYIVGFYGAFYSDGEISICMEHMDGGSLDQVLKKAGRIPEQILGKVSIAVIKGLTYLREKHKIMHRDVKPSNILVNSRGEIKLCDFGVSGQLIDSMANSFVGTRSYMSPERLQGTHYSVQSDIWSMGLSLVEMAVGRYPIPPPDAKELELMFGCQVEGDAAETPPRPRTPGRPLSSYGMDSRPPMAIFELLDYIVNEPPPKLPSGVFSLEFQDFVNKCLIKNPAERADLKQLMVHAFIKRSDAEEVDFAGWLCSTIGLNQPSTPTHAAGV

The assay has as its target MEK-NL (Homo sapiens, UniProt Q02750). Put plainly: Tracer buildup curves on MEK-NLuc (NanoBRET). It counts as cell-based. On the technique in general: In BRET a luciferase serves as donor, and the signal depends on an acceptor being close.

Structures are written as SMILES.

Regarding `O=C(CCC1=[N+]2C(=Cc3ccc(-c4ccc[nH]4)n3[B-]2(F)F)C=C1)NCCOCCOCCOCCONC(=O)c1ccc(F)c(F)c1Nc1ccc(I)cc1F`, the EC50 (read-out: binding affinity to MEK-NL (tracer buildup curves), HEK293T cells, 2 hrs at 37° C.) came out at 350 nM. The “weaker binding affinity to MEK-NL compared to Tram-bo” value (tracer buildup curves) is given as ~ 70 fold.
